{"source": "PubChem BioAssay AID1346985", "about": "(Tox21, 2019)", "note": "Only a part is listed here, and it is no random draw. Inconclusive results are not listed. Activity calls are given as the source filed them. Calls come from the whole dose curve; as a rule, active = well fitted activation curve with a large enough effect in the repeat runs; inconclusive = weak or mixed curves; inactive = flat fitted curve, though single readings scatter. % is set by controls: 0 for no effect and ±100 for the full control effect."}
{"molecular_target": "Nuclear receptor subfamily 1 group I member 2 (Homo sapiens) (UniProt O75469)", "experiment": "Human pregnane X receptor (PXR) activation by small molecules, qHTS assay; note: nearly all actives have a fitted effect of over 40% in size", "conditions": "DPX-2 HepG2 CYP3A4-luciferase, 24 h; at 38.3 µM (top of the series)", "text": "National Center for Advancing Translational Sciences [NCATS]\nNIH Chemical Genomics Center [NCGC]\nU.S. Environmental Protection Agency [EPA]\nNational Institutes of Environmental Health Sciences [NIEHS]\nNational Toxicology Program [NTP]\nThe Pregnane X receptor (PXR), a ligand activated nuclear receptor plays a critical role in the regulation of genes involved in drug metabolism and transporters. Activation of PXR may be involved in the unwanted adverse drug-drug interactions. […] Therefore, identification of compounds with the potential for PXR activation can be of importance in improving the efficacy of drugs with less toxicity and avoiding drug-drug interactions.\nDPX-2 (Puracyp, Inc.) cell lines, used for screening against human PXR activation has HepG2 cells co-transfected with a PXR response element and a luciferase construct containing CYP3A4 promoter. Increase in luciferase activity can be used to identify the compounds that activate the PXR pathway.\nDPX-2 cells were dispensed at 2,000 cells per well in 5uL of assay medium into white, solid-bottom 1536-well plates using a Multidrop Combi dispenser (Thermo Scientific). […] Then 5ul One-Glo assay reagent (Promega) was added to each plate by a Flying Reagent Dispenser (FRD, Aurora Discovery) and following 30 min incubation at room temperature, luciferase activity was quantified on a ViewLux plate reader (Perkin Elmer)."}
{"smiles": "CN(C(=O)Cc1ccccc1)[C@H]1CC[C@@]2(CCCO2)C[C@@H]1N1CCCC1", "activation": "inactive: 0.0469%"}
{"smiles": "O=C(OC1CN2CCC1CC2)c1ccccc1", "note": "(configuration not stated)", "activation": "inactive: 8.29%"}
